{"sequences": {"note": "The chains behind the UniProt entries cited, without tags or fusion partners. Where a name states a change or a piece, a line headed by the entry shows the natural chain unless it says otherwise.", "UniProt P47824": "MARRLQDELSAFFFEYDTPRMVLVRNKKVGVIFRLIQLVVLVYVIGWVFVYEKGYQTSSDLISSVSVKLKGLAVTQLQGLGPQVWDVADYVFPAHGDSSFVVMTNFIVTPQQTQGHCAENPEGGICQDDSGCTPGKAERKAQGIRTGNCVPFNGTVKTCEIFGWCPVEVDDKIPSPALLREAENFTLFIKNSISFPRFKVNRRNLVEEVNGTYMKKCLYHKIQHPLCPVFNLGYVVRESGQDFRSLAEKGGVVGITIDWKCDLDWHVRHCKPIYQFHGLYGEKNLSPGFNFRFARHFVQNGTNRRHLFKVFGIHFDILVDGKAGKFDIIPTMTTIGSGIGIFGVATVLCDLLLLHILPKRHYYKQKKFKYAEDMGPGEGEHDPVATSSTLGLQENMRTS"}, "source": "ChEMBL document CHEMBL4613266", "about": "“Discovery and Structure Relationships of Salicylanilide Derivatives as Potent, Non-acidic P2X1 Receptor Antagonists” (J Med Chem, 2020)", "molecular_target": "P2X purinoceptor 1 (Rattus norvegicus, UniProt P47824)", "test": "Antagonist activity at rat P2X1 receptor"}
{"smiles": "Nc1ncnc2c1ncn2[C@@H]1O[C@H](COP(=O)(O)OP(=O)(O)OP(=O)(O)O)[C@H]2OC3(O[C@H]21)C([N+](=O)[O-])=CC([N+](=O)[O-])C=C3[N+](=O)[O-]", "note": "(stereo partly specified)", "values": [{"measurement": "IC50", "result": 6, "unit": "nM"}]}
